Measurements as given in patent US6150335A, “Tic-containing opioid dipeptide derivatives useful as analgesics” (Astra AB, priority 1996, dated 2000).

Sequences of proteins named here, by UniProt entry; tags and fusion partners are left off.
UniProt P33535, whole entry: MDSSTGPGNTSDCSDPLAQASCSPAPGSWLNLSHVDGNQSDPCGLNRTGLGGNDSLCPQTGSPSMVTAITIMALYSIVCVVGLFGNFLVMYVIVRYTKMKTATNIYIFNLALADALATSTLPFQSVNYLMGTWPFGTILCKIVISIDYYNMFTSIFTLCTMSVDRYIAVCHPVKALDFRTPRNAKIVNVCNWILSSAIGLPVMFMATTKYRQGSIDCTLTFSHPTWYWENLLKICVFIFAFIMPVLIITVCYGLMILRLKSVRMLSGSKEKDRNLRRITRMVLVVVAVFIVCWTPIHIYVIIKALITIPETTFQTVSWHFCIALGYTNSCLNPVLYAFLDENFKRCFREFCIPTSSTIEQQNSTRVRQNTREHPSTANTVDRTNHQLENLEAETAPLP

Experiments:
guinea pig ileum (GPI) = test: Guinea pig ileum (GPI) bioassay: inhibition of electrically evoked contractions; assay type: cell-based; settings: for IC50: read-out: GPI IC50, normalized with [Leu5]enkephalin standard, effect primarily μ-mediated, tested form: TFA
Method: (§1) Bioassays based on inhibition of electrically evoked contractions of the mouse vas deferens (MVD) and of the guinea pig ileum (GPI) were performed. In the GPI assay the opioid effect is primarily mediated by μ opioid receptors, whereas in the MVD assay the inhibition of the contractions is mostly due to interaction with δ opioid receptors.
(§2) The GPI and MVD bioassays were carried out as reported in P. W. Schiller et al., Biochem. Biophys. Res. Commun. 85, 1332-1338 (1978) and J. DiMaio et al., J. Med. Chem. 25, 1432-1438 (1982). A log-dose response curve was determined with [Leu^5 ]enkephalin as standard for each ileum and vas preparation, and IC50 values of the compounds being tested were normalized according to A. A. Waterfield et al., Eur. J. Pharmacol. 58, 11-18 (1979).

mouse vas deferens (MVD) = test: Mouse vas deferens (MVD) bioassay: inhibition of electrically evoked contractions; assay type: cell-based; settings: tested form: TFA; for GPI/MVD IC50 ratio: ratio of GPI IC50 to MVD IC50; for IC50: read-out: MVD IC50
Method: as §1, §2

μ opioid receptor = μ opioid receptor (Rattus norvegicus, UniProt P33535); test: μ opioid receptor binding assay, displacement of [3H]DAMGO from rat brain membranes; settings: read-out: Ki^μ, [3H]DAMGO 0.7 nM, Cheng-Prusoff, tested form: TFA
Method: (§3) μ and δ opioid receptor binding constants (Ki^μ,Ki^δ) of the compounds were determrined by displacement of relatively selective μ and δ radioligands from binding sites in rat brain membrane preparations calculated from the measured IC50 values on the basis of the equation by Cheng and Prusoff, (Y. C. Cheng and W. H. Prusoff Biochem. Pharmnacol. 22, 3099-3102 (1973)).
(§4) The μ-, δ- and κ-opioid receptor affinities of all new analogs were determined in binding assays based on displacement of μ-, δ- and κ-selective radioligands from rat brain membrane binding sites. In the case of κ-ligands guinea pig brain homogenates were used, since the relative proportion of κ-binding sites is higher in guinea pig brain than in rat brain. The experimental procedure being used in our laboratory represents a modified version of the binding assay described by Pasternak et al. (Mol. Pharnacol. 11, 340-351 (1975)). Male Sprague-Dawley rats (300-350 g) from the Canadian Breeding Laboratories were decapitated and after removal of the cerebellum the brains were homogenized in 30 volumes of ice-cold standard buffer (50 mnM Tris HCl , pH 7.7). After centrifugation at 30,000×g for 30 min at 4° C. the membranes were reconstituted in the original volume of standard buffer and incubated for 30 min at 37° C. (to release bound endogenous ligands). Subsequent centrifugation and resuspension of the pellet in the initial volume of fresh standard buffer yielded the final membrane suspension. Aliquots (2 ml) of the membrane preparations were incubated for 1-2 h at 25° C. with 1 ml standard buffer containing the peptide to be tested and one of the following radioligands at the final concentration indicated: [^3 H]DAMGO, μ-selective, 0.7 nM; [^3 H]DSLET, μ-selective, 1.0 nM; and [^3 H]U69,563, κ-selective, 0.5 nM. The incubation was terminated by filtration through Whatman GF/B filters under vacuum at 4° C. Following two washings with 5 ml portions of ice-cold standard buffer the filters were transferred to scintillation vials and treated with 1 ml Protosol (New England Nuclear) for 30 min prior to addition of 0.5 ml acetic acid and 10 ml Aquasol (New England Nuclear). After shaking for 30 min the vials were counted at an efficiency of 40-45%. All experiments were performed in duplicate and repeated at least three times. Specific binding of each of the three radioligands was defined by performing incubations in the presence of cold DAMGO, DSLET and U69,563, respectively, at a concentration of 1 micromolar. Values of half-maximal inhibition (IC50) of specific binding were obtained graphically from semilogarithmic plots. From the measured IC50-values, binding inhibition constants (Ki) were calculated based on Cheng and Prusoff's equation (Biochem. Pharmacol. 22, 3099-3102 (1973)). Ratios of the Ki -values determined in the μ-, δ- and κ-representative binding assays are a measure of the receptor selectivity of the compound under investigation (e.g. Ki^μ /Ki^μ indicates the selectivity for δ-receptors versus μ-receptors).

δ opioid receptor = δ opioid receptor (Rattus norvegicus, UniProt P33533); test: δ opioid receptor binding assay, displacement of [3H]DSLET from rat brain membranes; settings: tested form: TFA; for Ki: read-out: Ki^δ, rat brain membranes, [3H]DSLET 1.0 nM, Cheng-Prusoff; for Ki^μ/Ki^δ: δ versus μ receptor selectivity
Method: as §3
as §4, with “[…];” for “[^3 H]DSLET, μ-selective, 1.0 nM;”

[1] = inhibition of electrically evoked contractions, normalized with [Leu5]enkephalin standard, effect mostly δ-mediated

Row | Structure (SMILES) | IC50 (guinea pig ileum (GPI)) [nM] | GPI/MVD IC50 ratio (mouse vas deferens (MVD)) | IC50 (mouse vas deferens (MVD); [1]) [nM] | Ki (μ opioid receptor) [nM] | Ki (δ opioid receptor) [nM] | Ki^μ/Ki^δ (δ opioid receptor) | δ opioid agonist character (full / partial) (mouse vas deferens (MVD); conclusion from MVD and GPI assays) | MVD IC50 (mouse vas deferens (MVD); [1]) | GPI IC50 (guinea pig ileum (GPI); normalized with [Leu5]enkephalin standard, effect primarily μ-mediated, tested form: TFA)
1 | Cc1cc(O)cc(C)c1C[C@@H](N)C(=O)N1Cc2ccccc2C[C@H]1C(=O)NCCc1ccccc1 | 290 | 27.9 | 10.4 | 8.2 | 4.51 | 1.82 |  |  | 
2 | CC(CNC(=O)[C@@H]1Cc2ccccc2CN1C(=O)[C@@H](N)Cc1ccc(O)cc1)(c1ccccc1)c1ccccc1 | 2830 | 30.3 | 93.4 | 22.9 | 20 | 1.15 |  |  | 
3 | Cc1cc(O)cc(C)c1C[C@@H](N)C(=O)N1Cc2ccccc2C[C@H]1C(=O)NCC(c1ccccc1)c1ccccc1 | 91.1 | 30.3 | 3.01 | 4.08 | 1.75 | 2.33 |  |  | 
4 | C[C@@H](CNC(=O)[C@@H]1Cc2ccccc2CN1C(=O)[C@@H](N)Cc1ccc(O)cc1)c1ccccc1 | 3430 | 132 | 26 | 51.3 | 3.67 | 14.0 |  |  | 
5 | Cc1cc(O)cc(C)c1C[C@H](N)C(=O)N1Cc2ccccc2C[C@H]1C(=O)NCC(c1ccccc1)c1ccccc1 | 290 | 399 | 0.726 | 1.62 | 0.693 | 2.34 |  |  | 
6 | C[C@H](CNC(=O)[C@@H]1Cc2ccccc2CN1C(=O)[C@@H](N)Cc1ccc(O)cc1)c1ccccc1 | 3790 | 177 | 21.4 | 82.3 | 6.31 | 13.0 |  |  | 
7 | Cc1cc(O)cc(C)c1C[C@H](N)C(=O)N1Cc2ccccc2C[C@H]1C(=O)NCCc1ccccc1 | 48 | 20.9 | 2.3 | 1.59 | 0.0577 | 27.6 | partial δ agonists | partial agonist | 
8 | N[C@@H](Cc1ccc(O)cc1)C(=O)N1Cc2ccccc2C[C@H]1C(=O)NCCc1ccccc1Cl |  |  | 8.77 | 96.9 | 1.43 | 67.8 |  |  | partial agonist
9 | CN[C@@H](Cc1ccc(O)cc1)C(=O)N1Cc2ccccc2C[C@H]1C(=O)NCC(c1ccccc1)c1ccccc1 | 156 | 598 | 0.261 | 12.7 | 0.581 | 21.9 |  |  | 
10 | N[C@@H](Cc1ccc(O)cc1)C(=O)N1Cc2ccccc2C[C@H]1C(=O)NCCc1ccccc1F | 5450 | 72.2 | 75.5 | 255 | 7.71 | 33.1 |  |  | 
